Test results as given in article PMC9182007, “Statistical Methods in the Study of Protein Binding and Its Relationship to Drug Bioavailability in Breast Milk” (Molecules, 2022).

Legend:
[1] = NP TLC on non-impregnated control plates; type: physicochemical; conditions: Table S3, non-impregnated NP plate; acetonitrile/acetate buffer pH 7.4/methanol 60:20:20
[2] = RP TLC on non-impregnated control plates; type: physicochemical; conditions: Table S4, non-impregnated RP plate; acetonitrile/acetate buffer pH 7.4/methanol 60:20:20

SMILES: CN1[C@@H]2CC[C@H]1C[C@@H](OC(=O)C(CO)c1ccccc1)C2 (some centres unmarked) [atropine]
- CNP (Rf, control NP plate) [1]: 0.27
- CRP (Rf, control RP plate) [2]: 0.73

SMILES: CN1C(=O)CN=C(c2ccccc2)c2cc(Cl)ccc21 [diazepam]
- CRP (Rf, control RP plate) [2]: 0.77

SMILES: O=C1Nc2ccc(Cl)cc2C(c2ccccc2)=NC1O (centres unmarked) [oxazepam]
- CNP (Rf, control NP plate) [1]: 0.93
- CRP (Rf, control RP plate) [2]: 0.83
